Rango dissoc inh: prevents RanGTP from dissociating the Rango-importin beta complex. O95149+P62826. Biochemical FRET Rango-importin beta, RanGTP-induced dissociation. Potency, µM (highest dose often 46.1 µM), for the others: top-dose activity change, negative = inhibition. 340,000 tested, 0.071% active. AID 540253; further: potency means the concentration at half of the fitted maximal effect; % of control where 0% means no effect; nearly all actives have a fitted effect of over 45% in size
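FRET read at 45 min, room temperature: inhibitors block the CFP/YFP signal rise when RanGTP (0.6 uM Ran, 2 mM GTP, 0.2 uM RCC1) frees Rango (0.1 uM) from importin beta (0.25 uM). Pre-read after 5 min compound exposure flags interference.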
ClpP mod: qHTS Assay for Activators of ClpP; 340,000 tested, 1.9% active; Potency, µM (series often up to 57.5 µM), without a hit: at the highest dose activity change, negative = active; ATP-dependent Clp protease proteolytic subunit (Bacillus subtilis (strain 168)), P80244; purified B. subtilis ClpP, FRET peptide cleavage, 20 min; active means well fitted falling curve with a large enough effect; inconclusive means small, poorly fitted or top-dose-only effect; inactive means no such curve, though single readings can be large or run the other way; further: potency means the concentration at half of the fitted maximal effect; the source files actives as falling curves though it sought activators and does not explain the sign; nearly all actives have a fitted effect of over 65% in size
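ClpP 10 microg/mL final, pH 8 Tris/KCl buffer with BSA, glycerol, Tween-20; compound pinned in; FRET-FV substrate; RT 20 min; Ex320/Em430; ΔFRET vs ADEP 5.8 microM, DMSO, no enzyme.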
Rango complex inh: Rango-importin beta binding inhibition | Rango CFP/YFP FRET sensor + importin beta, 45 min | Potency, µM (top dose mostly 92.2 µM), inactives show at the highest dose inhibition of complex formation | 340,000 tested, 0.031% active | AID 540263;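 further: potency means the concentration at half of the fitted maximal effect; 0% = DMSO wells and 100% = buffer wells lacking importin beta; nearly all actives have a fitted effect of over 15% in size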
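FRET biosensor (snurportin 1 IBB flanked by EYFP and cerulean), 50 nM, with compound 5 min, then 0.125 microM importin beta in PBS, 1 mM DTT, 0.02% Tween-20, 0.1% BSA. CFP/YFP ratio read after 45 min at room temperature; pre-read flags interference.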
MBNL1-CUG inh: MBNL1-poly(CUG) RNA binding inhibition. Q9NR56. TR-FRET MBNL1-His/biotin-(CUG)12 binding, 665/545 ratio. Potency, µM (highest dose often 57.5 µM), without a hit: at the highest dose activity change, negative = inhibition, usual class: inhibitors. 280,000 tested, 0.036% active. AID 2675; active means well fitted inhibition curve with a large enough effect in the signal ratio, with a control signal flat, not every such curve was filed as active; inconclusive means small, poorly fitted or top-dose-only effect, or effect the other way, or a change in a side signal; inactive means no such curve, though single readings can be large or run the other way; the % refers to the signal ratio; further: potency means the concentration at half of the fitted maximal effect; on the % scale 0 is the no-effect control and ±100 the full control effect
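Compound titration spanned 92 nM–58 uM against the MBNL1-His/biotin-(CUG)12 complex. After 60 min at room temperature with 5 nM streptavidin-XL665 and 0.055 ng/ul terbium anti-His, ratiometric 665/545 nm emission (Ex 340 nm) normalized to controls.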
CBFb RUNX1 block: inhibitors of human CBF-beta and RUNX1 interaction; Q01196+Q13951; AlphaScreen CBFb-His/RUNX1-biotin binding, biochemical; Potency, µM (doses to about 59.8 µM), for the others: at the highest dose activity, negative = inhibition, actives largely listed as inhibitors; 230,000 tested, under 10 active; AID 1477; active means well fitted curve in the direction sought with a large enough effect; inconclusive means small, poorly fitted or top-dose-only effect, or effect the other way, or another doubt; inactive means no such curve, though single readings can be large or run the other way; further: % of control where 0% means no effect
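Proteins preincubated together for 20 min at RT before compound addition; 15 min later, nickel and streptavidin beads were added and left 90 min prior to AlphaScreen measurement.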
Numbers without * were called inactive; u = inconclusive; x = not tested or not shown; [ ] = remark or other dose. The entries come from a sample that favours hits as a whole. Unless noted, the call rests on the fitted dose curve.

Chains of the proteins cited; added tags and fusions are not shown.
ATP-dependent Clp protease proteolytic subunit (Bacillus subtilis (strain 168)), P80244, UniProt P80244, whole entry, looked up: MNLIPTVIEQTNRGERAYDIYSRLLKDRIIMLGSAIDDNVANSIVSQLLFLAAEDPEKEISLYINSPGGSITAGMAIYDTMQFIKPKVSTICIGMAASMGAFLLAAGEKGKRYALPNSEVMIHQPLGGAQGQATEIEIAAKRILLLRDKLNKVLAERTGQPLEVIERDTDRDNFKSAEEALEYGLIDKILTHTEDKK

SMILES | Rango dissoc inh | ClpP mod | Rango complex inh | MBNL1-CUG inh | CBFb RUNX1 block
COC(=O)c1ccc2nc(Nc3nc4ccc(F)cc4s3)sc2c1 | 13µM* | 18µM* | u | 5% | 12%
Cc1ccc(NC(=O)C2CCCN2S(=O)(=O)c2ccc3c(c2)C(C)(C)C(=O)N3C)cc1 (stereo unspecified) | x | 0% | x | x | x
Cc1ccc(-c2noc(-c3cc4ccccc4oc3=O)n2)cc1 | 12% | -7% | 2% | -1% | 2%
Cc1cccc(-c2noc(-c3cc4ccccc4oc3=O)n2)c1 | 15% | 8.9µM* | 5% | 11% | -4%
O=c1oc2ccccc2cc1-c1nc(-c2ccccc2)no1 | -3% | 28µM* | -4% | u | -2%
Cc1ccc(C)c(NS(=O)(=O)c2ccc3oc(=O)c4ncn(C)c4c3c2)c1 | x | 0% | x | x | x
Nc1ccc(C(=O)Nc2ccc3nc(-c4ccncc4)[nH]c3c2)cc1 | -5% | -3% | 4% | 0% | -1%
CC(=O)Nc1ccc2nc(-c3ccccn3)[nH]c2c1 | -18% | 11µM* | -6% | 1% | 2%
CC(=O)Nc1ccc2nc(-c3ccncc3)[nH]c2c1 | -10% | 25µM* | -1% | 17% | -1%
CC(=O)Nc1ccc2nc(-c3cc(C)ccc3C)[nH]c2c1 | x | 4% | x | x | x

One compound at a time, as listed above. Values in the order: Rango dissoc inh, ClpP mod, Rango complex inh, MBNL1-CUG inh, CBFb RUNX1 block
Profile of O=c1oc2ccccc2cc1-c1nc(-c2ccccc2)no1 = -3%, 28µM*, -4%, u, -2%
Profile of COC(=O)c1ccc2nc(Nc3nc4ccc(F)cc4s3)sc2c1 = 13µM*, 18µM*, u, 5%, 12%

(more compounds)
SMILES | Rango dissoc inh | ClpP mod | Rango complex inh | MBNL1-CUG inh | CBFb RUNX1 block
COc1ccc(CN(Cc2ccccc2)C(=O)CN2CCN(C)CC2)cc1COc1ccc(NC(C)=O)cc1 | x | -1% | x | x | x
O=C(CN1C(=O)CC(c2ccco2)Sc2ccccc21)Nc1ccc(OC(F)(F)F)cc1 (stereo unspecified) | x | -1% | x | x | x
CCn1c(=O)c2sccc2n2c(CCCC(=O)Nc3ccc(C)cc3)nnc12 | x | -1% | x | x | x
O=C(/C=C/c1ccc2c(c1)OCO2)NCCSCc1cccc(Cl)c1 | -14% | 32µM* | 2% | 8% | 3%
O=C(/C=C/c1ccc2c(c1)OCO2)NCCSCc1ccc(Cl)cc1Cl | 25% | -1% | 0% | 8% | 1%
O=C(/C=C/c1ccc2c(c1)OCO2)NCCCN1CCOCC1 | 17% | 16µM* | -6% | 18% | 1%
CCOC(=O)N1CCN(c2nc3ccccc3nc2C(C#N)C(=O)NCCc2ccccc2)CC1 (stereo unspecified) | u | 14µM* | u | -5% | 0%
N#CC(C(=O)NCCc1ccccc1)c1nc2ccccc2nc1N1CCCCC1 (stereo unspecified) | 16% | -3% | -2% | -1% | 9%
COc1ccccc1C(C)NCC(=O)Nc1ccccc1C(F)(F)F (stereo unspecified) | 1% | 18µM* | -5% | x | -2%
CCOC(=O)c1cc(-c2cc3ccccc3o2)nc2c1c(=O)[nH]c(=O)n2CCOC | -19% | 7.1µM* | u | 0% | 3%
CCOC(=O)c1cc(-c2ccc([N+](=O)[O-])cc2)nc2c1c(=O)[nH]c(=O)n2Cc1ccccc1 | 2% | x | -1% | 11% | x
Cc1ccc(S(=O)(=O)CC(=O)c2ccc(C(C)(C)C)cc2)cc1 | 11% | 28µM* | -7% | -1% | 6%
CCc1c(CN2CCN(c3ccc(F)cc3)CC2)csc1C | x | -1% | x | x | x
N=C(N)c1ccc(N=Nc2c(O)ccc3c2[nH]c2ccccc23)cc1 | -3% | -13% | 58µM* | x | x
Cc1c(OCC(=O)OC(C)(C)C)ccc2c3c(c(=O)oc12)CCC3 | -8% | 28µM* | 1% | -3% | 1%
Cc1c(OCC(=O)OC(C)C)ccc2c3c(c(=O)oc12)CCC3 | -18% | 32µM* | 0% | -4% | 8%
C=CCOC(=O)COc1ccc2c(C)c(C)c(=O)oc2c1C | -2% | 16µM* | -2% | 13% | 11%
CC(=O)COc1ccc2c3c(c(=O)oc2c1C)CCCCC3 | -12% | 25µM* | -3% | 3% | 7%
COc1ccc2c(c1)c1c(c(=O)n(-c3ccc(C)cc3)c(=O)n1CC(=O)c1ccc(Cl)cc1)n2C | x | -14% | x | x | x
Nc1nc(NCc2ccccc2Cl)c2[nH]cnc2n1 | x | 0% | x | x | x
CCc1nnc2c3ccccc3nc(Nc3ccc(F)c(Cl)c3)n12 | x | 0% | x | x | x
CCc1c(C)c2ccc(OCC(=O)N(C)C)c(C)c2oc1=O | 6% | 40% | 10% | 18% | 4%
CCc1c(C)c2ccc(OCC(=O)OC(C)C)c(C)c2oc1=O | 1% | 25µM* | 3% | -2% | 5%
CCn1cc(C(=O)N2CCN(c3cccc(C)c3)C(C)C2)c(=O)c2cc(S(=O)(=O)N3CCOCC3)ccc21 (stereo unspecified) | x | -1% | x | x | x
Cc1ccc(NC(=O)c2sc3ncnc(N(C)C4CCCCC4)c3c2C)cc1 | x | -22% | x | x | x
CC1(C)Cc2c(cnn2-c2ccc(F)cc2)C(NC(=O)CCN2CCCCO2)C1 (stereo unspecified) | 3% | 25µM* | 2% | 5% | x
O=C(/C=C/c1ccc2c(c1)OCO2)N1CCOCC1 | 9% | u | -2% | 7% | -1%
CC1CN(C(=O)/C=C/c2ccc3c(c2)OCO3)CC(C)O1 (stereo unspecified) | 0% | 28µM* | u | 9% | 10%
CC(C)(C)NC(=O)C1CCN(C(=O)c2ccc(-c3ccccc3)cc2)CC1 | 21% | 1% | 4% | -2% | 6%
CN1CCN(C(=O)c2ccc(-c3ccccc3)cc2)CC1 | -8% | 32µM* | 0% | -3% | x

Structural class: the compounds so far with a thiophene ring, fused or not.
SMILES | Rango dissoc inh | ClpP mod | Rango complex inh | MBNL1-CUG inh | CBFb RUNX1 block
CCn1c(=O)c2sccc2n2c(CCCC(=O)Nc3ccc(C)cc3)nnc12 | x | -1% | x | x | x
CCc1c(CN2CCN(c3ccc(F)cc3)CC2)csc1C | x | -1% | x | x | x
Cc1ccc(NC(=O)c2sc3ncnc(N(C)C4CCCCC4)c3c2C)cc1 | x | -22% | x | x | x

Remaining list, next part:
SMILES | Rango dissoc inh | ClpP mod | Rango complex inh | MBNL1-CUG inh | CBFb RUNX1 block
O=C(NCCO)C1CCN(C(=O)c2ccc(-c3ccccc3)cc2)CC1 | 10% | 32µM* | 3% | -3% | 9%
COc1ccccc1N1C(=O)c2ccccc2NC1c1cc(OC)c(OC)c(OC)c1 (stereo unspecified) | -2% | x | 4% | 9% | x
COc1ccccc1N1C(=O)c2ccccc2NC1C(OC)OC (stereo unspecified) | -16% | 22µM* | 7% | -9% | 7%
CC1=C(C(=O)N(C)C)CC(CC(=O)NC(c2ccccc2)c2ccccc2)C(=O)N1CCCN1CCCC1=O (stereo unspecified) | x | 2% | x | x | x
CCNc1nc(C#N)nc(N2CCOCC2)n1 | x | -3% | x | x | x
c1ccc(-c2cc3c(-n4cccc4)ncnc3o2)cc1 | -8% | 28µM* | 0% | u | -4%
Cc1ccc(S(=O)(=O)NCCC(=O)OC(C)C(=O)NC2CC2)cc1 (stereo unspecified) | -4% | 1% | u | x | x
Cc1ccc(S(=O)(=O)NCCCCCC(=O)Nc2ccccc2)cc1 | -7% | 28µM* | -2% | 5%[11.5 µM] | -2%
Cc1ccc(NC(=O)C(C)OC(=O)CCNS(=O)(=O)c2ccc(C)cc2)cc1 (stereo unspecified) | -10% | 32µM* | 2% | -2% | 8%
Cc1ccc(S(=O)(=O)NCCCCCC(=O)Nc2ccccc2C)cc1 | 21% | 2% | -2% | 3%[11.5 µM] | 4%

Shown as a hit in Rango dissoc inh, of those listed so far:
SMILES,Rango dissoc inh,ClpP mod,Rango complex inh,CBFb RUNX1 block
COC(=O)c1ccc2nc(Nc3nc4ccc(F)cc4s3)sc2c1,13µM*,18µM*,u,12%

Assay outcomes as filed in PubChem.
